Earlier results on 25 compounds are cited in patent US20230154571A1, “METHOD AND DEVICE FOR SELECTING A SUBASSEMBLY OF MOLECULES FOR USE IN PREDICTING AT LEAST ONE PROPERTY OF A MOLECULAR STRUCTURE” (published 2023).

The data set relates to different bacterial cultures. Particulars: for Exp. data: Annex 2, AMES mutagenicity test, different categories of molecules; for Experimental data: Annex 1, AMES mutagenicity test, load molecules, data validated at the level of the European authorities.

Turning to `C=CCOC(=O)c1ccccc1C(=O)OCC=C`, the Exp. data entry was “−”.

Regarding `CCCCOC(=O)CCCCCCCCC(=O)OCCCC`, the Exp. data entry was “−”.

With `CCOCC`, the Exp. data entry is “−”.

Turning to `CNN`, the Exp. data result is reported as “+”.

With `Cc1ccccc1[N+](=O)[O-]`, the Experimental data result is on record as “−” and the Exp. data entry is on record as “−”.

Turning to `NN`, the Exp. data entry is given as “+”.

In the case of `O=[N+]([O-])c1ccc(Cl)c(Cl)c1`, the Experimental data result is on record as “+” and the Exp. data entry is “+”.

For the compound `O=[N+]([O-])c1ccc(Cl)c([N+](=O)[O-])c1`, the Experimental data entry is given as “+” and the Exp. data result was “+”.

Consider `O=[N+]([O-])c1cccc2ccccc12`, for which the Experimental data entry is recorded as “+” and the Exp. data entry is given as “+”.

`c1ccc(N(c2ccccc2)c2ccccc2)cc1`: the Exp. data entry is on record as “−”.

As to `c1ccc(Nc2ccccc2)cc1`, the Exp. data entry was “−”.

Regarding 1-chloro-4-dinitrobenzene, the Experimental data result is reported as “+” and the Exp. data result was “+”.

Take 2-nitro diphenylamine: the Exp. data result is listed as “−”.

For Acide nitric, the Exp. data result is reported as “+”.

Consider Acide perchlorique, for which the Exp. data entry is recorded as “−”.

As to Paris Green, the Exp. data result is “−”.

For the compound barium chlorate, the Exp. data result is “−”.

Regarding calcium carbonate, the Exp. data result is “−”.

On to nitrogen tetroxide, for which the Exp. data result is “+”.

Take oxide nitrous: the Exp. data entry is recorded as “+”.

With sodium nitrate, the Exp. data result is “−”.

Turning to strontium carbonate, the Exp. data result is recorded as “−”.

As to strontium chloride, the Exp. data entry is listed as “−”.

Consider strontium nitrate, for which the Exp. data result is given as “−”.

On to strontium sulfate, for which the Exp. data entry is “−”.
